The values below come from patent publication US20180338964A1, “3-(PIPERIDIN-4-YL)-ISOXAZOL-3(OH)-ONES FOR TREATMENT OF DERMATOLOGIC DISORDERS” (Emeriti Pharma AB, priority 2014, published 2018).

pIC50: −log10 of the molar value.

In the experiment the test system is fibrinolysis in human plasma clot (tPA activation of plasminogen). To be noted: citrated platelet poor human plasma, tPA 80 ng/ml, 37° C.

As a reminder, the pIC50 is −log10 of the IC50, conventionally taken in molar units. A word on the IC90: it is the point of the concentration-response curve where the effect stands at 90%. For `CC(C)(C)C[C@H]1C[C@@H](c2cc(=O)[nH]o2)CCN1` [5-[(2R,4S)-2-(2,2-dimethylpropyl)piperidin-4-yl]-2,3-dihydro-1,2-oxazol-3-one], for the setting “read-out: IC50 (clot-lysis time prolonged to twice the vehicle value)”, the pIC50 is 6.03. In addition, the IC90 (read-out: IC90 (clot-lysis time prolonged to nine times the vehicle value)) came out at 3.26 µM.
